The chains behind the UniProt entries cited, without tags or fusion partners.
UniProt P02786, whole entry: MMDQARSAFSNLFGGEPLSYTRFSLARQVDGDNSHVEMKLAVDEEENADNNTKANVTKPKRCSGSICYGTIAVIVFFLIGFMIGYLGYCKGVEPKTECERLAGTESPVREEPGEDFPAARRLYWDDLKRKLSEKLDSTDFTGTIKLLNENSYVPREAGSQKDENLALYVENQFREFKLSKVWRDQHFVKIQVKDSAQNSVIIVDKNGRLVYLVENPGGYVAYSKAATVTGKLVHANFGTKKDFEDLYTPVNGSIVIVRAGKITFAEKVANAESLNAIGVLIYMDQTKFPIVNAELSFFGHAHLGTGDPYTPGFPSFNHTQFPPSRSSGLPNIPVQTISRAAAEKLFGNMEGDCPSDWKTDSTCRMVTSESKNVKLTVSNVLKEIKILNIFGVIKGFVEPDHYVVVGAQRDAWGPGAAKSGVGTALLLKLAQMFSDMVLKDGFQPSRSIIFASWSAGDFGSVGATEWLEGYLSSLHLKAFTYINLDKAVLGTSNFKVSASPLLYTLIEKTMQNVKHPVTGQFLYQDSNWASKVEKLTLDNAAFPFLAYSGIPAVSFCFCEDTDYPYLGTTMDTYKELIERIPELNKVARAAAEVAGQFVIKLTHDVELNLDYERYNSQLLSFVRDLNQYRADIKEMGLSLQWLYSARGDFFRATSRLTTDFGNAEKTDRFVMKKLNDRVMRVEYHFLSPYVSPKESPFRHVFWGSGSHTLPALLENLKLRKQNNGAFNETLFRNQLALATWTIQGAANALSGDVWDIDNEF

In patent publication US7090837:

Assays:
[1] = molecular target: LDL receptor (LDLR) on HepG2-hLDLR cells (human) (UniProt P01130); assay: cell-based or functional assay
[2] = molecular target: transferrin receptor on HepG2 cells (immortalized human hepatocyte cell line) (human) (UniProt P02786); assay: cell-based or functional assay

Substance | transduction efficiency on HepG2-hLDLR cells after LDLR upregulation in lipoprotein deficient serum [1] | transduction efficiency on HepG2 cells after desferoxamine upregulation of the transferrin receptor [2]
ApoE4-CD40 chimeric targeting polypeptide (apolipoprotein E4 fused to the transmembrane domain and c (from UniProt P02649 19-317; P25942 194-277) (ligand) | 2 fold | –
hTf-CD40 chimeric targeting polypeptide (human transferrin fused to the transmembrane domain and cyt (from UniProt P02787 20-698; P25942 194-277) (ligand) | – | 1.5 fold
